{"source": "patent US20140065615A1", "about": "“The KRAS Variant and Tumor Biology” (YALE UNIVERSITY, priority 2011, published 2014)", "tested_on": "HT-29 (cell line without the allele)", "experiment": "MTT survival, Irinotecan with or without Cetuximab, HT-29", "format": "cell-based", "settings": "non-KRAS variant cell lines; radiation as well as irinotecan chemotherapy", "experimental": "Cells were plated, treated with agents 24 hours after plating, media was changed after a 24 hour exposure, and then survival was scored 48 hours later using the MTT assay."}
{"substance": "Cetuximab: monoclonal antibody targeting epidermal growth factor receptor (anti-EGFR moAb)", "values": [{"measurement": "cell death on addition of Cetuximab to cytotoxic therapy vs cytotoxic therapy alone", "value": "increased cell death"}]}
